From ChEMBL document CHEMBL2163302, “Allyl m-trifluoromethyldiazirine mephobarbital: an unusually potent enantioselective and photoreactive barbiturate general anesthetic” (J Med Chem, 2012)
pEC50, pIC50: −log10 of the molar value.

Key:
[1] = target: T1, GABA-A receptor; alpha-1/beta-3/gamma-2 (Homo sapiens, UniProt P14867+P18507+P28472)
T1 sequence (P14867 whole entry): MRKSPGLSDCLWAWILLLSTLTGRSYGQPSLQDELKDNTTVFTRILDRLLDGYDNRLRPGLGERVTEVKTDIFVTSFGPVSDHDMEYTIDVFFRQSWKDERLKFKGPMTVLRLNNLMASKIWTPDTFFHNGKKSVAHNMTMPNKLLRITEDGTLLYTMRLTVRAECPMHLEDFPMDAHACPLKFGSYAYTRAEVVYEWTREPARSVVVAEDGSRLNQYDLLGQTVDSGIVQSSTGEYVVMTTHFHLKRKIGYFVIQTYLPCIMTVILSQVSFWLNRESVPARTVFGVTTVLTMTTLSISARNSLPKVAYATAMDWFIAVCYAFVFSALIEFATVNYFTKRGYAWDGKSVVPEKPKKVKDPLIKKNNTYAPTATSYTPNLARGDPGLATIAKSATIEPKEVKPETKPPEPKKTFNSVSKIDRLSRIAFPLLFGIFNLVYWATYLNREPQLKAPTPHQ
T1 sequence (P18507 whole entry): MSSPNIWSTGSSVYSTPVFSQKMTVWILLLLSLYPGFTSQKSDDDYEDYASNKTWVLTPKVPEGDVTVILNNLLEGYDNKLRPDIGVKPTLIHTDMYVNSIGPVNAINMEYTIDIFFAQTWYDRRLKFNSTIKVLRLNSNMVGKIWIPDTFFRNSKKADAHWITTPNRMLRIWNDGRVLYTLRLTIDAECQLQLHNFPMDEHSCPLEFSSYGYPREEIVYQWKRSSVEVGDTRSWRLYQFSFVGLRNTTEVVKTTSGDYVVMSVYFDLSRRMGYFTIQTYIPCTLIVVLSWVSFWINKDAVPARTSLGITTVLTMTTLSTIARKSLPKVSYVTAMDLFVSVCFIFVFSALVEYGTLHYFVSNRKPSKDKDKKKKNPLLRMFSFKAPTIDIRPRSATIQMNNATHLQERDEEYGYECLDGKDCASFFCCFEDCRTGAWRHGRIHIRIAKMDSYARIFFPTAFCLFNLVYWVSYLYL
T1 sequence (P28472 whole entry): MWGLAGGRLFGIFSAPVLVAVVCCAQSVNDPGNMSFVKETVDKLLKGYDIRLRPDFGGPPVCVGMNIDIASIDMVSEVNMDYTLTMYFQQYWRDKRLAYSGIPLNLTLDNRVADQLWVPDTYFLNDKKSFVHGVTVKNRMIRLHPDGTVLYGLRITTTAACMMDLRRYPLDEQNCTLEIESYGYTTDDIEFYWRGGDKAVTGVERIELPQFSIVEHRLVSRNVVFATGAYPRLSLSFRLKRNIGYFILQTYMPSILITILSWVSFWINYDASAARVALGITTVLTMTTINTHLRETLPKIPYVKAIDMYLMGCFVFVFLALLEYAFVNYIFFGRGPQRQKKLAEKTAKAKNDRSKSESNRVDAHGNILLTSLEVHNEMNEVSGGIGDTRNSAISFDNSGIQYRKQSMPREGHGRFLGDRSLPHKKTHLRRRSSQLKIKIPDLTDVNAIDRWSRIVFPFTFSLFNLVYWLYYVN

[2] = target: T2, GABA-A receptor; alpha-1/beta-2/gamma-2 (Homo sapiens, UniProt P14867+P18507+P47870)
T2 sequence (P14867 whole entry): T1 sequence (P14867 whole entry)
T2 sequence (P47870 whole entry): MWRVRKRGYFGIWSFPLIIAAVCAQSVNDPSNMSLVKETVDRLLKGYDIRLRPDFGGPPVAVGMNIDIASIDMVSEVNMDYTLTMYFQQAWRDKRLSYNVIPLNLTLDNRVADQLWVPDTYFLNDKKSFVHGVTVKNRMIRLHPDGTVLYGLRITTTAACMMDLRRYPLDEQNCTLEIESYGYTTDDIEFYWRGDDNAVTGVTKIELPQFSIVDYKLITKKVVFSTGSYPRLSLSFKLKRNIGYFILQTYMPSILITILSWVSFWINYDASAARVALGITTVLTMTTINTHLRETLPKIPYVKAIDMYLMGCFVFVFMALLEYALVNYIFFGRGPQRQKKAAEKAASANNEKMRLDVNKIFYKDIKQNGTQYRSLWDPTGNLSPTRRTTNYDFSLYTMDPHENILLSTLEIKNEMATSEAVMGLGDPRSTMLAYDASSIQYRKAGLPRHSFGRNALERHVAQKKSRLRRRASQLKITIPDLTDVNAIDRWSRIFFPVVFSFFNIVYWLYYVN
T2 sequence (P18507 whole entry): T1 sequence (P18507 whole entry)

[3] = target: T2, GABA-A receptor; alpha-1/beta-2/gamma-2; assay: Agonist activity at human alpha1beta2gamma2L GABA A receptor expressed in Xenopus laevis oocytes assessed as increase in current response by two-electrode voltage clamp assay; format: functional, cell-based, Oocyte
[4] = target: T3, Gamma-aminobutyric acid receptor subunit alpha-1 (Homo sapiens, UniProt P14867); assay: Displacement of [3H]R-(-)-14 from human FLAG-tagged alpha1 GABA A receptor expressed in HEK293S cells; format: cell-based
T3 sequence (P14867 whole entry): T1 sequence (P14867 whole entry)

[5] = target: T4, Gamma-aminobutyric acid receptor subunit beta-3 (Homo sapiens, UniProt P28472); assay: biochemical
T4 sequence (P28472 whole entry): T1 sequence (P28472 whole entry)

Compound	pEC50 [1]	pEC50 [2]	pEC50 [3]	pIC50 [4]	pIC50 [5]
C=CC[C@@]1(c2cccc(C3(C(F)(F)F)N=N3)c2)C(=O)NC(=O)N(C)C1=O	5.92	5.68	4.89	–	–
C=CC[C@]1(c2cccc(C3(C(F)(F)F)N=N3)c2)C(=O)NC(=O)N(C)C1=O	4.85	–	4.21	3.92	3.77
